≈ marks a conversion by molar mass, not a printed value. Bounds are passed on as bounds.

This passage reports MIC results from DBAASP.

For test [1], the system named is Staphylococcus aureus ATCC 12600. The test is described as follows: ≥ marks a high value that may be exact or a test limit, other limits are often not marked, values filed in µg/mL are converted to µM.
Test [2] relates to Escherichia coli K-12. Described as above.

As for `CC[C@H](C)[C@H](NC(=O)[C@@H]1CCCN1C(=O)[C@H](CCCCN)NC(=O)[C@H](CC(C)C)NC(=O)[C@H](C)NC(=O)[C@@H](NC(=O)[C@@H](NC(=O)[C@H](CC(C)C)NC(=O)[C@@H](NC(=O)[C@H](CCCCN)NC(=O)[C@H](CCCCN)NC(=O)[C@H](C)NC(=O)[C@H](C)NC(=O)[C@H](CO)NC(=O)[C@@H](NC(=O)[C@H](CC(C)C)NC(=O)[C@H](CCCCN)NC(=O)[C@H](CCCCN)NC(=O)[C@H](CC(C)C)NC(=O)[C@H](Cc1ccccc1)NC(=O)[C@H](CCCCN)NC(=O)[C@H](CCCCN)NC(=O)[C@H](Cc1c[nH]c2ccccc12)NC(=O)[C@@H](N)CCCCN)[C@@H](C)O)C(C)C)[C@@H](C)O)[C@@H](C)O)C(=O)N[C@@H](CO)C(=O)N[C@@H](CO)C(=O)O` [KWKKFLKKLTSAAKKVLTTALKPISS], the MIC was 8 µM (≈ 23.3 µg/mL) in test [1] and 2 µM (≈ 5.83 µg/mL) in test [2].

In test [1], `CC(C)C[C@H](NC(=O)[C@H](C)NC(=O)[C@@H](N)C(C)C)C(=O)N[C@@H](CC(N)=O)C(=O)N[C@@H](CCC(=O)O)C(=O)N[C@@H](CC(N)=O)C(=O)N[C@@H](CC(C)C)C(=O)N[C@@H](CC(C)C)C(=O)N[C@@H](CCCN=C(N)N)C(=O)O` [VALNENLLR] showed an MIC not below 128 µM.

The MIC is the smallest concentration in the dilution series that meets the test's criterion for growth inhibition. The low end stands for inhibition by little substance, the high end for a need for much substance.
